Experimental data as given in BindingDB's records for doi:10.7270/Q2Q52NH6 (Catholic University of Daegu, 2017).

Chains of the proteins cited; added tags and fusions are not shown. Lines headed by an entry give the natural chain unless they say otherwise; changes in a name come on top.
UniProt P22303: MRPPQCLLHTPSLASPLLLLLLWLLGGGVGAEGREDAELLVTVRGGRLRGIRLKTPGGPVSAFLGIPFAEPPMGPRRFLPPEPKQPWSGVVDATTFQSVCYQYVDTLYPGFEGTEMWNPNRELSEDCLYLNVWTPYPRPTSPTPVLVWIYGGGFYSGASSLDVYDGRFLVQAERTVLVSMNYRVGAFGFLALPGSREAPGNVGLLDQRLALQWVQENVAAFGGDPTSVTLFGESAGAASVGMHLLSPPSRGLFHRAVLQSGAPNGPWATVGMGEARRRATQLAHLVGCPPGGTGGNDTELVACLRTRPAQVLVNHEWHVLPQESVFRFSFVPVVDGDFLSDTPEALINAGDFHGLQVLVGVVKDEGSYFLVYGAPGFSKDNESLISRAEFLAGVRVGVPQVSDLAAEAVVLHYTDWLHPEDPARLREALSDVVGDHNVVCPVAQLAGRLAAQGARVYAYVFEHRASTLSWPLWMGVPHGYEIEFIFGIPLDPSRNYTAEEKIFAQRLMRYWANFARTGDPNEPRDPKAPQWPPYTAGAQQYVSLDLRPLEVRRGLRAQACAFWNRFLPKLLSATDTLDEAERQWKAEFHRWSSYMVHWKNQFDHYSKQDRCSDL

Molecular target: Acetylcholinesterase (Homo sapiens, UniProt P22303)
Assay: Acetylcholinesterase Inhibitory Assay
Conditions: pH 8; 25 °C
Method: Briefly, 140 μL of sodium phosphate buffer (pH 8.0), 20 μL of each tested compound with different concentrations (4, 20, and 100 μM) and 20 μL enzyme solution were mixed and incubated at room temperature for 15 min. The reactions were initiated by the addition of 10 μL of 0.01 M 5,5'-dithiobis(2-nitrobenzoic acid) (DTNB) and 10 μL of 0.075 ATCI. […] The reaction was independently experimented for three times and recorded in 96-well microplates using a microplate reader (VersaMax).

COc1ccc2cc3[n+](cc2c1OC)CCc1cc2c(cc1-3)OCO2 [Berberinechloride]
pIC50: 6.11

pIC50: −log10 of the molar value.
